IntAct's records for PubMed 18716626

B1: Shugoshin 1 (Homo sapiens), Q5FBB7-6 (parent)
chain: MAKERCLKKSFQDSLEDIKKRMKEKRNKNLAEIGKRRSFIAAPCQIITNTSTLLKNYQDNNKMLVLALENEKSKVKEAQDIILQLRKECYYLTCQLYALKGKLTSQQTVEPAQNQEICSSGMDPNSDDSSRNLFVKDLPQIPLEETELPGQGESFQIEDQIPTIPQDTLGVDFDSGEAKSTDNVLPRTVSVRSSLKKHCNSICQFDSLDDFETSHLAGKSFEFERVGFLDPLVNMHIPENVQHNACQWSKDQVNLSPKLIQPGTFTKTKEDILESKSEQTKSKQRDTQERKREEKRKANRRKSKRMSKYKENKSENKKTVPQKKMHKSVSSNDAYNFNLEEGVHLTPFRQKVSNDSNREENNESEVSLCESSGSGDDSDDLYLPTCKYIQNPTSNSDRPVTRPLAKRALKYTDEKETEGSKPTKTPTTTPPETQQSPHLSLKDITNVSLYPVVKIRRLSLSPKKNKASPAVALPKRRCTASVNYKEPTLASKLRRGDPFTDLCFLNSPIFKQKKDLRRSKKSMKQIQ

Variants of: B1
Settings: with cbx5_human CBX5

Variant | effect of a mutation on the interaction
MAKERCLKKSFQDSLEDIKKRMKEKRNKNLAEIGKRRSFIAAPCQIITNTSTLLKNYQDNNKMLVLALENEKSKVKEAQDIILQLRKECYYLTCQLYALKGKLTSQQTVEPAQNQEICSSGMDPNSDDSSRNLFVKDLPQIPLEETELPGQGESFQIEDQIPTIPQDTLGVDFDSGEAKSTDNVLPRTVSVRSSLKKHCNSICQFDSLDDFETSHLAGKSFEFERVGFLDPLVNMHIPENVQHNACQWSKDQVNLSPKLIQPGTFTKTKEDILESKSEQTKSKQRDTQERKREEKRKANRRKSKRMSKYKENKSENKKTVPQKKMHKSVSSNDAYNFNLEEGVHLTPFRQKVSNDSNREENNESEVSLCESSGSGDDSDDLYLPTCKYIQNPTSNSDRPVTRPLAKRALKYTDEKETEGSKPTKTPTTTPPETQQSPHLSLKDITNVSLYPVEKIRRLSLSPKKNKASPAVALPKRRCTASVNYKEPTLASKLRRGDPFTDLCFLNSPIFKQKKDLRRSKKSMKQIQ [V453E] | disrupting interaction strength
